The conditions of this series: experimental values compiled from the literature.

Structures are written as SMILES.

1 compound from the OPERA property sets (Mansouri et al. 2018) can be followed below.

`O=C1C2CC=CCC2C(=O)N1SC(Cl)(Cl)C(Cl)Cl` (stereo unspecified) returned a logP of 3.8.

One may read the logP as the decadic logarithm of the partition coefficient of the neutral form, usually between octanol and water.
